Results taken from patent publication US10449168B2 (The University of Toledo, priority 2015, dated 2019).

Biological target: T1, maltose-binding protein-human aspartate N-acetyltransferase (MBP-ANAT) fusion enzyme (Homo sapiens, UniProt Q8N9F0)
T1 sequence (Q8N9F0 1-302): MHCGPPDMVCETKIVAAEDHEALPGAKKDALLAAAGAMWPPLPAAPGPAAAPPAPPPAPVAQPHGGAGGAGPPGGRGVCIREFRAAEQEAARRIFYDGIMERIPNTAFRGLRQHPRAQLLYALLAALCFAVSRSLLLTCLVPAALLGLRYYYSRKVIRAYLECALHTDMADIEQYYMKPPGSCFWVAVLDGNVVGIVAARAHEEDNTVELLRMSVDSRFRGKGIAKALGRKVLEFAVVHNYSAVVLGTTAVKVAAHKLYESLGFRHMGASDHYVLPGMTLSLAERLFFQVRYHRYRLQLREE
Experiment: ANAT DTNB-based activity assay / compound library screening
Details: not given

| improvement in the affinity for ANAT | Molecule | Ki | inhibition / affinity for ANAT (in words) |
| --- | --- | --- | --- |
|  | O=C(O)CCNCc1ccc(C(=O)O)c(C(=O)O)c1 [Compound 4, N-carboxyethyl-3,4-dicarboxybenzylamine] | 1700 µM | modest inhibitory properties |
|  | C[C@H](NCc1ccc(C(=O)O)c(C(=O)O)c1)C(=O)O [Compound 5, N-((2-methyl)carboxymethyl)-3,4-dicarboxybenzylamine] |  | did not show any inhibition |
|  | O=C(O)c1ccc(CN[C@@H](CO)C(=O)O)cc1C(=O)O [Compound 6, N-((2-hydroxymethyl)carboxymethyl)-3,4-dicarboxybenzylamine] |  | did not show any inhibition |
|  | CN(CC(=O)O)Cc1cccc(C(=O)O)c1C(=O)O [Compound 9, N-methyl, N-carboxymethyl-2,3-dicarboxybenzylamine] | 1200 µM |  |
|  | CN(CC(=O)O)Cc1ccc(C(=O)O)c(C(=O)O)c1 [Compound 10, N-methyl, N-carboxymethyl-3,4-dicarboxybenzylamine] |  | did not confer any inhibitory properties |
|  | C=CCN(CC(=O)O)Cc1ccc(C(=O)O)c(C(=O)O)c1 [Compound 11, N-allyl, N-carboxymethyl-3,4-dicarboxybenzylamine] | 1200 µM |  |
|  | O=C(O)CN(Cc1ccccc1)Cc1ccc(C(=O)O)c(C(=O)O)c1 [Compound 13, N-benzyl, N-carboxymethyl-3,4-dicarboxybenzylamine] | 420 µM |  |
|  | O=C(O)CN(Cc1ccc(C(=O)O)c(C(=O)O)c1)Cc1cccc2ccccc12 [Compound 14] | 115 µM |  |
|  | O=C(O)CN(Cc1ccc(C(=O)O)c(C(=O)O)c1)c1ccc2ccccc2c1 [Compound 15, N-(2-naphthyl)-N-carboxymethyl-3,4-dicarboxybenzylamine] |  | did not improve the inhibition |
|  | O=C(O)CN(CCN1CCOCC1)Cc1ccc(C(=O)O)c(C(=O)O)c1 [Compound 16, N-(ethylmorpholino)-N-carboxymethyl-3,4-dicarboxybenzylamine] |  | weak inhibitors with no enhancement in the Ki values |
|  | O=C(O)CN(Cc1ccc(C(=O)O)c(C(=O)O)c1)c1ccc(-c2ccccc2)cc1 [Compound 17, N-(4-biphenyl)-N-carboxymethyl-3,4-dicarboxybenzylamine] |  | weak inhibitors with no enhancement in the Ki values |
|  | O=C(O)CN(Cc1ccc(C(=O)O)c(C(=O)O)c1)Cc1ccccc1Br [Compound 18, N-(2-bromobenzyl)-N-carboxymethyl-3,4-dicarboxybenzylamine] |  | some improvement in the Ki values |
|  | O=C(O)CN(Cc1cccc(Br)c1)Cc1ccc(C(=O)O)c(C(=O)O)c1 [Compound 19, N-(3-bromobenzyl)-N-carboxymethyl-3,4-dicarboxybenzylamine] |  | some improvement in the Ki values |
|  | O=C(O)CN(Cc1ccc(C(=O)O)c(C(=O)O)c1)Cc1ccccc1C(F)(F)F [Compound 24, N-(2-trifluoromethylbenzyl)-N-carboxymethyl-3,4-dicarboxybenzylamine] |  | some improvement in the Ki values |
|  | O=C(O)CN(Cc1cccc(C(F)(F)F)c1)Cc1ccc(C(=O)O)c(C(=O)O)c1 [Compound 25, N-(3-trifluoromethylbenzyl)-N-carboxymethyl-3,4-dicarboxybenzylamine] |  | some improvement in the Ki values |
|  | O=C(O)CN(Cc1ccc(C(F)(F)F)cc1)Cc1ccc(C(=O)O)c(C(=O)O)c1 [Compound 26, N-(4-trifluoromethylbenzyl)-N-carboxymethyl-3,4-dicarboxybenzylamine] |  | weaker inhibitor |
|  | O=C(O)CN(Cc1ccc(OC(F)F)cc1)Cc1ccc(C(=O)O)c(C(=O)O)c1 [Compound 30, N-(4-difluoromethoxybenzyl)-N-carboxymethyl-3,4-dicarboxybenzylamine] |  | did not result in the intended improvement in the affinity |

| improvement in the affinity for ANAT | Molecule | Ki | inhibition / affinity for ANAT (in words) |
| --- | --- | --- | --- |
|  | O=C(O)CN(Cc1ccc(C(=O)O)cc1)Cc1ccc(C(=O)O)c(C(=O)O)c1 [Compound 31, N-(4-carboxybenzyl)-N-carboxymethyl-3,4-dicarboxybenzylamine] | 104 µM |  |
|  | CC(C)(C)c1ccc(CN(CC(=O)O)Cc2ccc(C(=O)O)c(C(=O)O)c2)cc1 [Compound 33, N-(4-t-butylbenzyl)-N-carboxymethyl-3,4-dicarboxybenzylamine] |  | weak inhibitors with no enhancement in the Ki values |
|  | O=C(O)CN(Cc1ccc(C(F)(C(F)(F)F)C(F)(F)F)cc1)Cc1ccc(C(=O)O)c(C(=O)O)c1 [Compound 34, N-(4-(2-perfluoropropyl))-N-carboxymethyl-3,4-dicarboxybenzylamine] |  | weak inhibitors with no enhancement in the Ki values |
|  | O=C(O)CCN(Cc1ccc(C(=O)O)c(C(=O)O)c1)Cc1ccccc1C(F)(F)F [Compound 40] |  | better inhibitors |
|  | O=C(O)CCN(Cc1ccc(C(F)(F)F)cc1)Cc1ccc(C(=O)O)c(C(=O)O)c1 [Compound 41] |  | better inhibitors |
|  | Cc1ccccc1CN(CCC(=O)O)Cc1ccc(C(=O)O)c(C(=O)O)c1 [Compound 43] |  | did not show improved inhibition |
|  | Cc1cccc(CN(CCC(=O)O)Cc2ccc(C(=O)O)c(C(=O)O)c2)c1 [Compound 44] |  | did not show improved inhibition |
|  | Cc1ccc(CN(CCC(=O)O)Cc2ccc(C(=O)O)c(C(=O)O)c2)cc1 [Compound 45] |  | very poor inhibitors |
|  | CC(C)(C)c1ccc(CN(CCC(=O)O)Cc2ccc(C(=O)O)c(C(=O)O)c2)cc1 [Compound 46] |  | very poor inhibitors |
|  | O=C(O)CCN(Cc1ccc(C(F)(C(F)(F)F)C(F)(F)F)cc1)Cc1ccc(C(=O)O)c(C(=O)O)c1 [Compound 47] |  | very poor inhibitors |
|  | O=C(O)CCN(Cc1ccc(C(=O)O)c(C(=O)O)c1)Cc1ccc2ccccc2c1 [Compound 49] | 34 µM | great enhancement in inhibition |
| 100 fold | O=C(O)CCN(Cc1ccc(C(=O)O)cc1)Cc1ccc(C(=O)O)c(C(=O)O)c1 [Compound 50] | 29 µM |  |
|  | O=C(O)CCN(Cc1ccc(C(=O)O)c(C(=O)O)c1)Cc1ccccc1Br [Compound 53] |  | better inhibitors |
|  | O=C(O)CCN(Cc1ccc(Br)cc1)Cc1ccc(C(=O)O)c(C(=O)O)c1 [Compound 54] |  | better inhibitors |
|  | O=C(O)C[C@H](NC(=O)CCl)C(=O)O [reference compound] | 200 µM |  |
|  | N-acetonitrile, N-carboxymethyl-3,4-dicarboxybenzylamine [Compound 12] |  | did not confer any inhibitory properties |

Same assay, conditions: read-out: Ki for ANAT

| Molecule | Ki |
| --- | --- |
| CC(=O)N(CC(=O)O)Cc1ccc(C(=O)O)c(C(=O)O)c1 [Compound 37, N-acetal-N-carboxymethyl-3,4-dicarboxybenzylamine] | 710 µM |
